Measurements taken from patent US10137134B2, “Molybdenum compounds for use in the treatment of cyanide poisoning” (dated 2018).

How the values were obtained:
[1] = cited from earlier work
[2] = Stoichiometric activity testing: reaction of complexes with cyanide to thiocyanate; details: for Measured Concentration [SCN−](aq): veronal buffer pH 7.4, one equivalent of cyanide, one hour reaction time, complex about 0.08-0.10 mM
[3] = tested on: freshly isolated rat hepatocytes; test: Hepatocyte model, safety study (ATP activity correlated with survival); details: for % Survival: substance only: 0.15 mM antidote, 5 mM sodium thiosulfate or 1 mM potassium cyanide, 1 hr at 37° C
[4] = tested on: HT29 (colon cancer); test: In vitro toxicity, MTT assay, HT29; details: 72 hours, averages for four repeats
[5] = tested on: PT45 (pancreas cancer); test: In vitro toxicity, MTT assay, PT45; details: 72 hours, averages for four repeats
[6] = Catalytic activity testing: conversion of cyanide to thiocyanate with thiosulfate; details: 20 minutes, no molybdenum catalyst
[7] = Solubility determination (saturated aqueous solution, absorbance); details: for Water Solubility: molar concentration multiplied by molecular weight; for Calc. Concentration [complex](aq): saturated solution in water
[8] = tested on: MCF-7 (breast cancer); test: In vitro toxicity, MTT assay, MCF-7; details: 72 hours, averages for four repeats

Compound: CC(C)Cc1ccc(C(C)C(=O)O)cc1 (stereo not drawn)
- safe dose for children [1]: 10 mg/kg

Compound: (Et4N)2[MoOS8]
- Amounts of thiocyanate formed in equivalents per mole complex ([2]; pH 7.4, 1 equivalent of cyanide reacted per mole complex): 0.5 equivalents per mole complex
- Amounts of thiocyanate formed in equivalents per mole complex ([2]; pH 7.4, 6 equivalents of cyanide reacted per mole complex): >2 equivalents per mole complex
- Amounts of thiocyanate formed in equivalents per mole complex ([2]; pH 9.2, 1 equivalent of cyanide reacted per mole complex): 0.9 equivalents per mole complex
- Amounts of thiocyanate formed in equivalents per mole complex ([2]; pH 9.2, 6 equivalents of cyanide reacted per mole complex): >2 equivalents per mole complex

Compound: O=C1C[SH]2CC(=O)[O][Mo]23(=[O])([O]1)[S][Mo]1(=[O])([S][S]1)[S]3 (stereo not drawn)
- survival (ATP activity), FIG. 6 ([3]; all of the concentrations tested): very well tolerated
- % Survival ([3]; Potassium Salt): over 95%
- % Survival ([3]; listed as Antidote, Potassium Salt): 95.3%
- % Survival ([3]; listed as antidote, Potassium Salt): 95%

Compound: cisplatin
- IC50 [4]: 1 µM
- IC50 [5]: 0.8 µM

Compound: (Et4N)[CpMo2O2S4]
- Measured Concentration [SCN−](aq) [2]: 0.095 mM

Compound: O=S(O)(O)=S
- % Survival [3]: 63.17%
- thiocyanate formation from cyanide and thiosulfate without the catalyst [6]: does not produce significant amount of thiocyanate

Compound: Na[Mo2O2S4(leu)]
- Water Solubility [7]: 60.0 mg/mL
- Calc. Concentration [complex](aq) [7]: 0.120 M

Compound: Na[Mo2O2S4(met)]
- Water Solubility [7]: 25.0 mg/mL
- Calc. Concentration [complex](aq) [7]: 0.049 M
- Measured Concentration [SCN−](aq) [2]: 0.108 mM

Compound: (Et4N)[Mo2O2S4(leu)]
- Measured Concentration [SCN−](aq) [2]: 0.082 mM

Compound: K2[Mo2O2S2(cys)2]
- Water Solubility [7]: 136.0 mg/mL
- Calc. Concentration [complex](aq) [7]: 0.204 M
- Measured Concentration [SCN−](aq) [2]: 0.000 mM

Compound: (Et4N)[Mo2O2S4(C5H11NO2S)]
- survival (ATP activity), FIG. 5 ([3]; higher concentrations): reduced tolerance

Compound: [Mo2O2S2(NCS)4]^2−. Tetraethylammonium Salt
- IC50 [8]: 262 µM
- IC50 [4]: 374 µM
- IC50 [5]: 83 µM
